By UniProt entry, the sequences of proteins in these tests, tags left out. Residues count along the entry.
UniProt P08581, 25-1390 limits assumed: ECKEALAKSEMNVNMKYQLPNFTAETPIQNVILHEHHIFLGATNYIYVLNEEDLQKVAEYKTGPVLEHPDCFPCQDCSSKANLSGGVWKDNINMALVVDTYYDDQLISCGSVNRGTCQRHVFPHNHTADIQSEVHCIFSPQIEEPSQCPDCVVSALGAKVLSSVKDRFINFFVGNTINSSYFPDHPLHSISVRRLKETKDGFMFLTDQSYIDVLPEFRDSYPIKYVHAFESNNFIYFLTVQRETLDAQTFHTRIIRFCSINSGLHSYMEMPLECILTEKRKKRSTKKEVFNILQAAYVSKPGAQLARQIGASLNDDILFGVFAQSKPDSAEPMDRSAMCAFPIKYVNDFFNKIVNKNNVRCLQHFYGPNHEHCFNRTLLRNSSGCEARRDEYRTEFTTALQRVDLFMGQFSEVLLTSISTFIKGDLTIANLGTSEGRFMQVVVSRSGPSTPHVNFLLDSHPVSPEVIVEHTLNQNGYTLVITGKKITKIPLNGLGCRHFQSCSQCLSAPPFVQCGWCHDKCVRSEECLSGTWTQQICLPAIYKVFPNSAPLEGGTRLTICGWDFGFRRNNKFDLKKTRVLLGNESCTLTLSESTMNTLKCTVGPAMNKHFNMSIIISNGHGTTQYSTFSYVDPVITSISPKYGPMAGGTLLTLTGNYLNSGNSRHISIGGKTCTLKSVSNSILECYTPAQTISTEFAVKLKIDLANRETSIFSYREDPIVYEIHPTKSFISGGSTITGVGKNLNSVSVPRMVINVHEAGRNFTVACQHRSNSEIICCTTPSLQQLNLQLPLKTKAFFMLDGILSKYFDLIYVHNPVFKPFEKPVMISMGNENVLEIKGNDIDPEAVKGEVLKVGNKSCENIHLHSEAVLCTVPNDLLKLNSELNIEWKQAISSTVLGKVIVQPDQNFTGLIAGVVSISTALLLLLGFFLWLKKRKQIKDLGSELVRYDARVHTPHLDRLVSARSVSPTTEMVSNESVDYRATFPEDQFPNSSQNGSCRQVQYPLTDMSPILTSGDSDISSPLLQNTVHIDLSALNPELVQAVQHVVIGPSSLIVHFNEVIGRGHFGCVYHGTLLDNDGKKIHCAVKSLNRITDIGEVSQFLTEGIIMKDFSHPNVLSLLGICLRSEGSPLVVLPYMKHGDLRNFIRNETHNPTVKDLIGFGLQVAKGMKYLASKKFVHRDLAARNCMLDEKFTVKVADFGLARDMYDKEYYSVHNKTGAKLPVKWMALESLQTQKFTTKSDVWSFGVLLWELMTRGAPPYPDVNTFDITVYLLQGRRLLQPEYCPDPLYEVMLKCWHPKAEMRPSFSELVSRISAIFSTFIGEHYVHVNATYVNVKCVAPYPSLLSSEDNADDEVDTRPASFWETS

In US7858643B2:

Molecular target: HGFR (c-Met) (Homo sapiens, UniProt P08581)
Assay: HGFR Continuous-Coupled Spectrophotometric Assay
Conditions: read-out: c-Met Ki; HGFR enzyme 50 nM, Met-2 substrate peptide, 37° C.

SMILES: C[C@@H](Oc1cc(-c2ccc(C(=O)N(C)CCCN(C)C)cc2)cnc1N)c1c(Cl)ccc(F)c1Cl
- Ki: 10 nM
